Patent US10258602B2 (Ocera Therapeutics, Inc., priority 2007, dated 2019)

Amino acid sequences for entries named in this document (tags omitted).
UniProt Q92847, whole entry: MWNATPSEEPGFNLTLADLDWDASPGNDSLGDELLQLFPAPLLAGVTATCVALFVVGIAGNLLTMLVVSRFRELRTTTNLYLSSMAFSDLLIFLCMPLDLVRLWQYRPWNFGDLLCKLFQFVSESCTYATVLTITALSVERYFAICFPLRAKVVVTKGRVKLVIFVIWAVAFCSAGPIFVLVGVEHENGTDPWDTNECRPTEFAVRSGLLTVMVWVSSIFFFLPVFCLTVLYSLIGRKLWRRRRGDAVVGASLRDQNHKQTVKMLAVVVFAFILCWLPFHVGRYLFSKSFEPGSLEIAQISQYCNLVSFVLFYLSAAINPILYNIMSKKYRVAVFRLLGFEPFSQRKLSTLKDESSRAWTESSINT

Biological target: GHS-R1a receptor (human ghrelin receptor) (Homo sapiens, UniProt Q92847)
Assay: Aequorin functional assay (ghrelin receptor), standard method B
Settings: functional activity at the human ghrelin receptor

| EC50 [nM] | SMILES |
| --- | --- |
| < 400 | CCC(C)C1NCC(C)Oc2ccccc2CCCNC(=O)C(CC(C)C)NC(=O)C(C)N(C)C1=O (single isomer, unassigned) |
| < 400 | CC1CNC(C2CC2)C(=O)N(C)C(C)C(=O)NC(Cc2cccnc2)C(=O)NCCCc2cccc(F)c2O1 (single isomer, unassigned) [973a] |
| < 400 | CC1CNC(C2CC2)C(=O)N(C)C(C)C(=O)NC(Cc2cccnc2)C(=O)NCCCc2cccc(F)c2O1 (single isomer, unassigned) [973b] |

Biological target: human growth hormone secretagogue receptor (hGHS-R1a) (Homo sapiens, UniProt Q92847)
Assay: Competitive radioligand binding assay (ghrelin receptor), standard method A
Settings: binding activity at the human ghrelin receptor

| SMILES | Ki [nM] |
| --- | --- |
| CC(C)C[C@H]1NC(=O)[C@@H](C)N(C)C(=O)[C@H](C2CC2)NC[C@H]2CCC3CCCC(CCCNC1=O)C3O2 (stereo partly drawn) | < 100 |
| CC(C)C[C@H]1NC(=O)[C@@H](C)N(C)C(=O)[C@H](C2CC2)NC[C@H]2CCc3ccnc(c3O2)CCCNC1=O | < 100 |
| CC(C)[C@@H]1NCCOc2ccccc2CCCNC(=O)[C@@H](Cc2ccc(Cl)cc2)NC(=O)[C@@H](C)N(C)C1=O | < 100 |
| C[C@@H]1C(=O)N[C@H](Cc2ccc(O)cc2)C(=O)NCCCc2ccccc2O[C@H](C)[C@@H](C)N[C@@H](C2CC2)C(=O)N1C | < 500 |
| C[C@@H]1CN[C@@H](C2CC2)C(=O)N(C)[C@H](C)C(=O)N[C@H]([C@@H](C)c2ccc(O)cc2)C(=O)N[C@@H](C)CCc2ccccc2O1 | < 100 |
| CC(C)CC1NC(=O)C(C)N(C)C(=O)C(C2CC2)NCC(C)Oc2cccnc2CCCNC1=O (single isomer, unassigned) | > 500 |
| CC(C)C[C@H]1NC(=O)[C@@H](C)N(C)C(=O)[C@H](C2CC2)NCC2Cc3cccc(c3O2)CCCNC1=O (single isomer, unassigned) | < 500 |
| CC1CCc2ccccc2OCCNC(C2CC2)C(=O)N(C)C(C)C(=O)NC(Cc2ccc(O)cc2)C(=O)N1 (single isomer, unassigned) | < 100 |
| CCC(C)C1NCC(C)Oc2ccccc2CCCNC(=O)C(CC(C)C)NC(=O)C(C)N(C)C1=O (single isomer, unassigned) | < 100 |
| CCC(C)C1NCCOc2ccccc2CCCNC(=O)C(Cc2ccccc2)NC(=O)C(CO)N(C)C1=O (single isomer, unassigned) [934a] | < 100 |
| CCC(C)C1NCCOc2ccccc2CCCNC(=O)C(Cc2ccccc2)NC(=O)C(CO)N(C)C1=O (single isomer, unassigned) [934b] | > 500 |
| CC1CNC(C2CC2)C(=O)N(C)C(C)C(=O)NC(Cc2cccnc2)C(=O)NCCCc2cccc(F)c2O1 (single isomer, unassigned) [973a] | < 100 |
| CC1CNC(C2CC2)C(=O)N(C)C(C)C(=O)NC(Cc2cccnc2)C(=O)NCCCc2cccc(F)c2O1 (single isomer, unassigned) [973b] | > 500 |
| CC1CCc2ncccc2OC(C)CNC(C2CC2)C(=O)N(C)C(C)C(=O)NC(C(C)c2ccc(O)cc2)C(=O)N1 (single isomer, unassigned) [1098a] | < 500 |
| CC1CCc2ncccc2OC(C)CNC(C2CC2)C(=O)N(C)C(C)C(=O)NC(C(C)c2ccc(O)cc2)C(=O)N1 (single isomer, unassigned) [1098b] | < 100 |

Results, then the molecule that gave them:

| Ki [nM] | SMILES |
| --- | --- |
| < 500 | C[C@@H]1CN[C@@H](C2CC2)C(=O)N(C)[C@H](C)C(=O)N[C@H](Cc2ccc(Cl)cc2)C(=O)NCCCc2ccc(Cl)cc2O1 |
| < 500 | C[C@@H]1CN[C@@H](C2CC2)C(=O)N(C)[C@H](C)C(=O)N[C@H](Cc2ccc(F)cc2)C(=O)NCCCc2ccc(Cl)cc2O1 |
| < 100 | C[C@@H]1C(=O)N[C@H](Cc2ccc(F)cc2)C(=O)NCCCc2cccc3c2OC(CN[C@@H](C2CC2)C(=O)N1C)C3 (single isomer, unassigned) |
| < 100 | CC1CCNC(=O)[C@@H](Cc2ccc(F)cc2)NC(=O)[C@@H](C)N(C)C(=O)[C@H](C2CC2)NC[C@@H](C)Oc2ccccc21 (single isomer, unassigned) [1017a] |
| < 500 | CC1CCNC(=O)[C@@H](Cc2ccc(F)cc2)NC(=O)[C@@H](C)N(C)C(=O)[C@H](C2CC2)NC[C@@H](C)Oc2ccccc21 (single isomer, unassigned) [1017b] |
| < 500 | CC1CCc2ncccc2OC(C)CNC(C2CC2)C(=O)N(C)C(C)C(=O)NC(Cc2ccc(O)cc2)C(=O)N1 (single isomer, unassigned) [1087a] |
| < 100 | CC1CCc2ncccc2OC(C)CNC(C2CC2)C(=O)N(C)C(C)C(=O)NC(Cc2ccc(O)cc2)C(=O)N1 (single isomer, unassigned) [1087b] |
| < 100 | CC1CCc2ncccc2OC(C)CNC(C2CC2)C(=O)N(C)C(C)C(=O)NC(Cc2ccc(O)cc2)C(=O)N1 (single isomer, unassigned) [1089a] |
| < 500 | CC1CCc2ncccc2OC(C)CNC(C2CC2)C(=O)N(C)C(C)C(=O)NC(Cc2ccc(O)cc2)C(=O)N1 (single isomer, unassigned) [1089b] |
